# Test results: PubChem BioAssay AID449763 (Sanford-Burnham Center for Chemical Genomics, 2010)
# The list shows a part of the results, in another mix than the full data. Active and inactive are the calls of the source.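 Rule for the calls: active = at 10 µM dose, activation of 40% or more, normalized to positive control; inactive = the rest.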
# Assay: PERK-eIF2a-CHOP pathway stimulators – cell-based, CHO-CHOP luciferase reporter, luminescence, uHTS, primary screen (AID 449763);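 note: 100% = tunicamycin at 10 µg/mL and 0% = DMSO alone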
# Conditions: UPR activation, at 10 µM, active compounds read high, percent of tunicamycin response over DMSO baseline
# In short: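 Test system: CHO-CHOP cells, stable luciferase reporter of PERK-eIF2a-CHOP signalling | Quantity: 500 CHO-CHOP cells per well | Buffer or medium: F12 plus 10% serum | Compound dosing: 10 µM single point, 0.5% DMSO | Schedule: 6 h compound treatment, 37 °C | Signal: Luciferase luminescence | Control set: Tunicamycin high control, DMSO low control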
row,Compound,activation
1,NC(=O)c1cc([N+](=O)[O-])cc([N+](=O)[O-])c1N,inactive: 0.949%
2,CN(C(=O)Cc1ccc(Cl)c(Cl)c1)[C@H]1CCCC[C@H]1N1CCCC1,inactive: -1.42%
3,Cc1ccc(N/C(=N/P(=O)(N2CCOCC2)N2CCOCC2)N2CCOCC2)cc1,inactive: -0.416%
4,CCN(N=Nc1nonc1N)c1nonc1N,inactive: 3.63%
5,O=[N+]([O-])c1cc([N+](=O)[O-])c(CCN2CCOCC2)c([N+](=O)[O-])c1,inactive: 3.41%
6,CCOP(=O)(Nc1ccccc1)OCC,inactive: -3%
7,Cc1cc(SC(NC(=O)c2ccc(F)cc2)C(Cl)(Cl)Cl)ncn1 (stereo unspecified),inactive: -0.841%
8,Cc1ccc(NP(=O)(Oc2ccccc2F)Oc2ccccc2F)nc1,inactive: -0.703%
9,CN(C(=O)Cc1ccc(Cl)c(Cl)c1)[C@H]1CCCC[C@@H]1N1CCCC1,inactive: -0.25%
10,O=C(O)c1ccccc1[As](=O)(O)O,inactive: 0.482%
11,CC(=O)Nc1ccc([As](=O)(O)O)cc1,inactive: 0.177%
12,O=P(Nc1nc2ccc(Cl)cc2s1)(c1ccccc1)c1ccccc1,inactive: -0.642%
13,Cc1ccccc1OP(=O)(Nc1ccccn1)Oc1ccccc1C,inactive: -0.894%
14,CC(NC(=O)COC(=O)C(O)(c1ccccc1)c1ccccc1)c1ccccc1 (stereo unspecified),inactive: 0.492%
15,CN(C)C(=O)Oc1noc2ccccc12,inactive: -1.52%
16,COC(=O)c1cc2c(s1)N=C(c1ccccc1)N(C)P2(=O)N1CCOCC1 (stereo unspecified),inactive: 0.296%
17,Cc1ccc(OP(=O)(Nc2ccccn2)Oc2ccc(C)cc2)cc1,inactive: 0.944%
18,CC(=O)NC(SC(=S)N(CC(C)C)CC(C)C)C(Cl)(Cl)Cl (stereo unspecified),inactive: 3.67%
19,O=C(OC1CN2CCC1CC2)c1ccccc1 (stereo unspecified),inactive: -0.219%
20,CCC(=O)N1C2C3N(C(=O)CC)C1C1N(C(=O)CC)C(C(N1C(=O)CC)N3C(=O)CC)N2C(=O)CC,inactive: -4.35%
21,CCNC(=S)/N=C(\N)N[N+](=O)[O-],inactive: -0.15%
22,O=C(NC1CCS(=O)(=O)C1)NP(=S)(Oc1ccccc1)Oc1ccccc1 (stereo unspecified),inactive: 0.848%
23,c1ccc(-c2nn[nH]n2)c(-c2nn[nH]n2)c1,inactive: -1.1%

row,Compound,activation
1,CCOC(=O)NC(Sc1ccccc1)C(Cl)(Cl)Cl (stereo unspecified),inactive: 3.07%
2,Cc1ccc(NP(=O)(Oc2cccc(C)c2)Oc2cccc(C)c2)nc1,inactive: -1.58%
3,CC(=O)Nc1ccc([As](=O)(O)O)c(O)c1,inactive: -1.65%
4,CC(=O)Nc1ccc(Oc2c([N+](=O)[O-])cc([N+](=O)[O-])cc2[N+](=O)[O-])cc1,inactive: 0.554%
5,CC(=O)c1ccc(N2CC2c2ccncc2)cc1 (stereo unspecified),inactive: 3.41%
6,Cc1ccccc1CN(C)C(=O)COC(=O)C(O)(c1ccccc1)c1ccccc1,inactive: 0.299%
7,C[C@@H]1C=CCP(=O)(Oc2ccccc2)O1 (stereo partly specified),inactive: 0.693%
8,C[C@H]1OP(=O)(Oc2ccccc2)C[C@@H]2O[C@@H]21 (stereo partly specified),inactive: -2.17%
9,CC(C)(C)C(=O)NC(Sc1ccccc1)C(Cl)(Cl)Cl (stereo unspecified),inactive: -1.38%
10,O=P1(Nc2nc3ccc(Cl)cc3s2)COc2ccccc2O1 (stereo unspecified),inactive: 0.135%
11,CCOc1ccc(C2=NCC(CBr)S2)cc1 (stereo unspecified),inactive: 0.744%
12,c1nnnn1CCn1cnnn1,inactive: -1.51%
13,CC(C)C(=O)NC(Sc1ccccc1)C(Cl)(Cl)Cl (stereo unspecified),inactive: 1.43%
14,O=P(Nc1nccs1)(c1ccccc1)c1ccccc1,inactive: -0.0746%
15,Nc1ccc([As](=O)(O)c2ccc([N+](=O)[O-])cc2)cc1,inactive: 1.32%
16,C(Cc1nn[nH]n1)Cc1nn[nH]n1,inactive: -0.641%
17,O=C(OC1CN2CCC1CC2)c1cccc(Cl)c1 (stereo unspecified),inactive: 0.188%
18,O=[N+]([O-])c1ncn(CCn2cnc([N+](=O)[O-])n2)n1,inactive: 1.43%
19,O=[As](O)(c1ccccc1)c1ccc(O)cc1,inactive: -0.846%
20,O=P(Nc1nc2ccccc2s1)(c1ccccc1)c1ccccc1,inactive: 1.67%
21,C[C@H]1OP(=O)(Oc2ccccc2)[C@H](O)[C@H](O)[C@H]1N=[N+]=[N-] (stereo partly specified),inactive: -1.43%
22,O=P(Nc1ccccn1)(c1ccc(Br)cc1)c1ccc(Br)cc1,inactive: 0.464%
23,CN(C)C1(CNC(=O)c2ccc(Cl)c(S(N)(=O)=O)c2)CCCCC1,inactive: 0.469%
